The values that follow come from ChEMBL document CHEMBL2331513, “Trisubstituted Sulfonamides: a New Chemotype for Development of Potent and Selective CB2 Receptor Inverse Agonists” (ACS Med Chem Lett, 2013).

Protein sequences, listed by entry. Tags and fused reporters are not part of them.
UniProt P34972, whole entry: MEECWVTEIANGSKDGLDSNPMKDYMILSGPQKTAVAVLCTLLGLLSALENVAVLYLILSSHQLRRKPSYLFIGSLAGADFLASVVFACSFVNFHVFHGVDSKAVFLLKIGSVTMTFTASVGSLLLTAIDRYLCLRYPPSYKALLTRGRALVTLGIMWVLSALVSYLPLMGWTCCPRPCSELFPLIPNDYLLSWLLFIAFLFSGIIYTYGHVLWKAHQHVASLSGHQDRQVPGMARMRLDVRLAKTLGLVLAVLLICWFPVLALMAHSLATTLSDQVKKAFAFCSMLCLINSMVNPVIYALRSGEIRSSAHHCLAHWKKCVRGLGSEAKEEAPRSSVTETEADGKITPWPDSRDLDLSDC

This test concerns the target Cannabinoid receptor 2 (Homo sapiens, UniProt P34972). Put plainly: Agonist activity at human CB2 receptor expressed in CHO cell membranes assessed as increase in forskolin-stimulated cAMP production after 45 mins by TR-FRET assay. The format is functional, cell-based.

By EC50 is commonly meant the concentration that produces a half-maximal response. Take `CCCCCCC(C)(C)c1cc(OC)c(C2C=C(CO)[C@H]3C[C@@H]2C3(C)C)c(OC)c1` (stereo partly specified): the concentration giving a half-maximal response (EC50) came out at 85 nM.
